# Ab-14 heavy chain CDR variants: yeast mating affinities

From the AlphaSeq antibody data of Engelhart et al. 2022 (doi:10.1038/s41597-022-01779-4), copy in the FLAb collection.

Target peptide (SARS-CoV-2 spike, HR2 region): PDVDLGDISGINAS

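The library (AAYL49) carries one to three amino acid substitutions per variant, with no insertions or deletions. Affinity was read by AlphaSeq, a pooled yeast mating assay with surface-displayed partners. After mating in shaken culture at 30 °C for 16 h, diploids were selected and their barcode pairs sequenced. Read counts were normalised to the haploid input and turned into Kd by a linear fit to BCL2-family pairs of known affinity, for each replicate. Mating was done three times.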

Parent: Ab-14, a human scFv built as VH, a (GGGGS)3 linker, VL. Only the CDRs of the heavy chain vary.
VH: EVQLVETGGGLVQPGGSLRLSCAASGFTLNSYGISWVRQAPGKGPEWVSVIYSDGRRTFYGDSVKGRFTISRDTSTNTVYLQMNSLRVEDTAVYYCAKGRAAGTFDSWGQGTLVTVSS
VL: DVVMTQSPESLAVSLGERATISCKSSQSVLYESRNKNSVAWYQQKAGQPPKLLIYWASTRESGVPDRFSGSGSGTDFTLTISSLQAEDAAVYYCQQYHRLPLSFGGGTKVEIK

The parent's heavy chain CDRs are GFTLNSYGIS, VIYSDGRRTFYGDSVK, GRAAGTFDS; each variant's own CDRs replace them letter for letter.
Values are log10 of the apparent Kd in nM; lower means stronger binding.
Averages over replicates are reported, and they cover detected replicates only.
Where no diploid with the target was found in that replicate, the entry reads "ND": below detection, most likely a poor binder, though not proof of it.
As a blank, each scFv also met three strains without target: over library AAYL49, 15% of these pairings were detected, typically at 4.06 and seldom below 2.83. For each scFv, signals with the empty controls are counted beside the result, with their mean in brackets.

| CDR-H1 | CDR-H2 | CDR-H3 | log10 Kd (nM) by replicate | log10 Kd (nM), mean | empty controls |
|---|---|---|---|---|---|
| GFTLNSYGIS | VIYSDGRHTFYPDSVK | GRAAGTTDS | ND ND ND | ND | 0/9 |
| GFTLNSYGIS | TISSDSRRTFYGDSVK | GRAAGTFDS | 5.85 5.08 ND | 5.46 | 0/9 |
| GYTLNSYFIS | VIYSDGRRTFYGDSVK | GRAAGTFDS | 1.62 1.78 1.57 | 1.66 | 2/9 (3.43) |
| GFTLNSYGIS | VIYGDGERTFYGDSVK | GRAAGTCDS | 4.02 2.84 3.34 | 3.40 | 5/9 (4.49) |
| GKTLNSYGIS | VIYSDGRRTFYGDSVK | GRAAGTFDS | 1.71 1.80 1.95 | 1.82 | 4/9 (4.74) |
| GFTLNSTLSS | VIYSDGRRTFYGDSVK | GRAAGTFDS | ND 3.05 ND | 3.05 | 0/9 |
| GFTLNSYGIS | VIYSDGRQTFYGDSVK | GYAAGTFWS | ND ND ND | ND | 0/9 |
| GFTLNSYGIA | VIYSDGRRCFYGDSVK | KRAAGTFDS | ND ND 4.37 | 4.37 | 2/9 (3.99) |
| GFTLNSYGIS | VIYSDGRRTFYGDSVA | GRAAGTHDS | 0.67 0.85 0.70 | 0.74 | 1/9 (4.34) |
| GFTLNSYGIP | VIYSDGRRPFYGDSVK | GRAAGTFDS | ND ND ND | ND | 1/9 (4.24) |
| GKTLNSYGAS | VIYSDGRRTFYGDSVK | GRAAITFDS | ND ND ND | ND | 0/9 |
| GFTLNSPGIS | VIMSDGRRFFYGDSVK | GRAAGTFDS | ND ND ND | ND | 3/9 (4.24) |
| GFELNSYGIS | VIISDGRRTFYGRSVK | GRAAGTFDS | 3.88 ND 5.72 | 4.80 | 4/9 (3.71) |
| GFTLNSYGIS | VIVSDGRRTFYGVSVK | GRAAGTFKS | ND ND ND | ND | 2/9 (3.88) |
| GFTLNSYGIS | VIYSDGRRTFPGDSVK | GRAYGTFDC | 4.63 ND 4.10 | 4.36 | 1/9 (5.02) |
| GPTLNSYGIS | VIYSDGRRTDYSDSVK | GRAAGTFDS | ND 3.99 3.36 | 3.68 | 1/9 (3.35) |
| GFTLNIYGIS | VIYSDGRRTFYGDSVK | GVAAGTFDF | ND ND 2.15 | 2.15 | 1/9 (2.94) |
| GFTLNSYGIC | VIYSDGRRTFYGDSVN | GRMAGTFDS | ND ND ND | ND | 0/9 |
| GFTLNSYGIS | FIYSDGRRTFYGWSVK | GRAKGTFDS | ND ND ND | ND | 0/9 |
| GFTLNHYGIS | VIYSDGRRTFYGDSVK | VRAYGTFDS | ND 3.53 ND | 3.53 | 3/9 (3.84) |
| VFTENSYGIS | VIYSDGRRTFYGDSVK | GRAAGTFNS | ND ND ND | ND | 0/9 |
| GFTLNSYGIK | VIYSDGRRTFYGDSVK | GRAAGTFDS | 4.50 ND ND | 4.50 | 1/9 (4.03) |
| GFTLNSYGIS | VIYSDKRRTFYGDSVK | GRAAGTKDS | ND ND ND | ND | 0/9 |
| GFTLNSYIIS | TIYSDGRRTFPGDSVK | GRAAGTFDS | ND ND ND | ND | 3/9 (3.32) |
| GFTLNSYGIS | VIYSDGRRTQYQDSVK | GRAAGTFDS | 1.12 1.19 1.17 | 1.16 | 3/9 (4.37) |
| GKTSNSYGIS | VIYSDYRRTFYGDSVK | GRAAGTFDS | ND ND ND | ND | 1/9 (3.06) |
| GSTTNSYGIS | VIYSDGRRTFYGDSVK | SRAAGTFDS | ND 2.62 ND | 2.62 | 2/9 (3.14) |
| GFPLNSCGIS | VIYSDGRRTFYGDSVK | GRAAGTFDS | 4.70 ND ND | 4.70 | 0/9 |
| GWTDNSYGIS | VIYSDGRRTFYGPSVK | GRAAGTFDS | 5.13 5.11 3.81 | 4.68 | 4/9 (4.09) |
| GFTLNSYGIW | VIYSDGQRTFLGDSVK | GRAAGTFDS | ND ND 5.05 | 5.05 | 0/9 |
| GFTLNIYGIS | VIYYDGRRPFYGDSVK | GRAAGTFDS | 3.79 ND ND | 3.79 | 3/9 (3.94) |
| GFTLNSRGIS | VIRSDGRRTFDGDSVK | GRAAGTFDS | ND ND ND | ND | 0/9 |
| YFTLNSYGIS | VIYSDGRRTFYIDSVK | GRAAGTFPS | ND ND ND | ND | 0/9 |
| GFTLNSYPIS | VIYSDGRRTFYGDSVK | GRAAGHFDS | 5.90 3.56 ND | 4.73 | 4/9 (4.08) |